Data from patent US20250288572A1, “COMPOSITIONS AND METHODS FOR TREATING PULMONARY VASCULAR DISEASE” (UNIVERSITY OF PITTSBURGH-OF THE COMMONWEALTH SYSTEM OF …, priority 2022, published 2025).
“Also recorded” adds a separate entry of the source. Like-named read-outs stand apart in the source and are kept apart here.

Columns and labels:
[1] = system: hypoxia-induced pulmonary hypertension mice; assay: Hypoxia-induced (Group 3) pulmonary hypertension mouse model; conditions: hypoxic mice; I-BET762 30 mg/kg daily oral
[2] = system: monocrotaline-exposed pulmonary arterial hypertension rats; assay: Monocrotaline (MCT) pulmonary arterial hypertension rat model, dosing Days 12-26
[3] = system: SU5416-hypoxic pulmonary arterial hypertension rats; conditions: rat, in vivo
[4] = system: SU5416-hypoxic pulmonary arterial hypertension rats; assay: SU5416-hypoxia pulmonary arterial hypertension rat model, disease-reversal dosing
[5] = I-BET762 30 mg/kg daily i.p. or BRD2889 5 mg/kg i.p. every 5 days, Days 12-26

What does the source list for `CCNC(=O)C[C@@H]1N=C(c2ccc(Cl)cc2)c2cc(OC)ccc2-n2c(C)nnc21` [I-BET762]?
Fulton index [1]: without significant effect; also recorded: With the exception of Fulton Index; LGALS8 in pulmonary arterioles (immunofluorescence) ([2]; I-BET762 30 mg/kg daily i.p. Days 12-26): decreased pulmonary vascular LGALS5; Fulton index (RV/LV+S) [2, 5]: reduced; arteriolar muscularization (α-SMA) [2, 5]: reduced; cleaved caspase-3 (CC-3), endothelial apoptosis [2, 5]: reduced downstream apoptosis; also recorded: decreased; right ventricular systolic pressure (RVSP) [2, 5]: reduced; left ventricular function (LVPW thickness, LVEF, LVFS; echocardiography) [3]: no alteration; Fulton index (RV/LV+S) ([4]; I-BET762 30 mg/kg daily i.p. or BRD2889 5 mg/kg i.p. every 5 days, final 2 weeks): reduced; aortic blood pressure (mean arterial pressure, MAP) ([4]; vs vehicle control): no alteration; heart rate ([4]; vs vehicle control): no alteration; left ventricular function (LVPW thickness, LVEF, LVFS; echocardiography) ([4]; vs vehicle control): did not exhibit altered left ventricular function
